Among the data in ChEMBL document CHEMBL3232853, “Alkylsulfone-containing trisubstituted cyclohexanes as potent and bioavailable chemokine receptor 2 (CCR2) antagonists” (Bioorg Med Chem Lett, 2014) are inhibition values, retold here.

The species named for the experiment is Rattus norvegicus. Briefly: Inhibition of rat sodium channel site 2 at 10 uM relative to control.

Take `CC(C)N(C)[C@@H]1CC[C@H](N2CC[C@H](NC(=O)c3cccc(C(C)(C)C)c3)C2=O)[C@H](CS(C)(=O)=O)C1`: the inhibition is 52%.
